# pIC50: −log10 of the molar value.
# Molecular target: human ATX (Homo sapiens (Human), UniProt Q13822)
# Assay: Human ATX enzyme inhibition assay (fluorescence quenching, MR121 substrate)
# Details: read-out: ATX Ic50; human His-tagged ATX 30 nM, MR121 substrate 1 μM, 30° C.
# Protocol: Human ATX Enzyme Inhibition Assay
# ATX inhibition was measured by a fluorescence quenching assay using a specifically labeled substrate analogue (MR121 substrate). To obtain this MR121 substrate, BOC and TBS protected 6-amino-hexanoic acid (R)-3-({2-[3-(2-{2-[2-(2-amino-ethoxy)-ethoxy]-ethoxy}-ethoxy)-propionylamino]-ethoxy}-hydroxy-phosphoryloxy)-2-hydroxy-propyl ester (Ferguson et al., Org Lett 2006, 8 (10), 2023) was labeled with MR121 fluorophore (CAS 185308-24-1, 1-(3-carboxypropyl)-11-ethyl-1,2,3,4,8,9,10,11-octahydro-dipyrido[3,2-b:2′,3′-i]phenoxazin-13-ium) on the free amine of the ethanolamine side and then, after deprotection, subsequently with tryptophan on the side of the aminohexanoic acid.
# Assay working solutions were made as follows:
# Assay buffer (50 mM Tris-HCl, 140 mM NaCl, 5 mM KCl, 1 mM CaCl2, 1 mM MgCl2, 0.01% Triton-X-100, pH 8.0;
# ATX solution: ATX (human His-tagged) stock solution (1.08 mg/mL in 20 mM bicine, pH 8.5, 0.15 M NaCl, 10% glycerol, 0.3% CHAPS, 0.02% NaN3), diluted to 1.4-2.5× final concentration in assay buffer;
# MR121 substrate solution: MR121 substrate stock solution (800 μM MR121 substrate in DMSO), diluted to 2-5× final concentration in assay buffer.
# Test compounds (10 mM stock in DMSO, 8 μL) were obtained in 384 well sample plates (Corning Costar #3655) and diluted with 8 μL DMSO. […]
smiles,measurement,value
Cn1c(COc2ccc(C#N)cc2C(C)(C)C)n[nH]c1=O,pIC50,8.70
